RXFP1 antagonist = blocks the human relaxin receptor RXFP1; Q9HBX9; HEK293-RXFP1, relaxin-stimulated cAMP HTRF, 30 min; hits give low values; activity change, negative = inhibition, % at 57.5 µM; actives 0.59% (n = 350,000);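 active = activity change of -60% or lower, but not beyond a set lower limit; inconclusive = change between -60% and -40%, or beyond the set limit; inactive = change above -40%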; also: % is scaled to controls: 0 for no effect and ±100 for the full control effect
RXFP1 ag = RXFP1 (human) receptor agonism | Q9HBX9 | HEK293T-RXFP1 cAMP TR-FRET, 30 min; response scale: percent of porcine relaxin response, buffer zero | Potency, µM (doses to about 57.5 µM), inactives show at the top dose activation, actives largely listed as activators | actives 0.3% (n = 370,000); also: potency is read from the fitted curve at half-maximal effect; % is scaled to controls: 0 for no effect and ±100 for the full control effect; nearly all actives have a fitted effect of over 60% in size
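cAMP rise read by TR-FRET after 30 min, 37C compound exposure (up to 58 uM) in RXFP1-transfected HEK293 cells with Ro 20174 present. EC50 from Hill-equation fits, with 29 nM porcine relaxin as 100% and buffer as basal.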
Luc counter = counter-screen: inhibitors of Kinase-Glo firefly luciferase | Q27757 | Kinase-Glo luciferase, ATP luminescence, 8 min | Potency, µM (highest dose often 38.3 µM), for inactives: at the highest dose activity change, negative = inhibition, actives largely listed as inhibitors | actives 0.28% (n = 200,000); also: potency is read from the fitted curve at half-maximal effect; % is scaled to controls: 0 for no effect and ±100 for the full control effect; nearly all actives have a fitted effect of over 60% in size
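Kinase-Glo luciferase light output from ATP and luciferin was measured with 10 uM ATP, within the enzyme's linear range. Buffer: 50 mM imidazole pH 7.2, 50 mM KCl, 7 mM MgCl2, 0.01% Tween 20, 0.05% BSA; luminescence read after 8 min at ambient temperature.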
gsp antagonist = antagonists of gsp mutant (McCune-Albright syndrome). gsp-mutant cells, cAMP HTRF, 30 min. Potency, µM (doses to about 76.9 µM), inactives show top-dose activity change, negative = inhibition, hits mostly inhibitors. AID 624288. actives 0.4% (n = 340,000); calls by dose curve; cell line not stated here;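 also: intracellular cAMP measured with PDE inhibitor Ro 20-1724 present during compound exposure; potency is read from the fitted curve at half-maximal effect; % is scaled to controls: 0 for no effect and ±100 for the full control effect; nearly all actives have a fitted effect of over 65% in size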
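HTRF cAMP measurement after 30 min RT detection following 30 min, 37C compound treatment alongside […] (added as 300 uM solution) in G418-selected cells seeded at 2000/well and grown 16–24 h.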
miR-21 reporter = miR-21 reporter, rising signal | HeLa miR-21 FLuc reporter, luciferase, 48 h | Potency, µM (doses to about 38.3 µM), inactives show at the top dose reporter change, positive = more light | 340,000 tested, under 10 active | AID 2288; active = well fitted rising curve with a large enough effect; inconclusive = small, poorly fitted or top-dose-only effect; inactive = no such curve, though single readings can be large or run the other way;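 note: % of control where 0% means no effect; miR-21 action dims this reporter so a rising signal means less miR-21 action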
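HeLa miR-21-FLuc reporter line, endogenous miR-21; 2000 cells/well in DMEM/10% FBS; compound titration up to ~40uM final, 48 h, 37 degree Celsius; luciferase detection reagent, 15 min lysis, CCD luminescence.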
gsp agonist = activates gsp, the McCune-Albright syndrome mutation; gsp mutant cells, cAMP HTRF, 30 min; Potency, µM (doses to about 76.9 µM), for inactives: top-dose activation (cAMP increase), most hits filed as activators; actives 0.13% (n = 340,000); active = well fitted activation curve with a large enough effect; inconclusive = small, poorly fitted or top-dose-only effect, or another doubt; inactive = no such curve, though single readings can be large or run the other way; cell line not stated here;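 also: phosphodiesterase inhibitor Ro 20-1724 added with compounds to block cAMP breakdown; potency is read from the fitted curve at half-maximal effect; nearly all actives have a fitted effect of over 60% in size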
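Cells in DMEM/10% FBS with G418 were pretreated with compounds in DMSO plus […] (300 uM stock) for 30 min at 37C. cAMP was measured by HTRF (cAMP-d2 plus anti-cAMP antibody-K) after 30 min at room temperature.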
Active calls of the source: *; ? = inconclusive; . = no result; [ ] = another dose, or the depositor's remark. Hits are enriched below; roughly 1% of the tested compounds scored in any of these assays. Unless noted, calls follow the shape of the dose curve; as a rule, active = well fitted curve in the direction sought with a large enough effect; inconclusive = small, poorly fitted or top-dose-only effect, or another doubt; inactive = no such curve, though single readings can be large; an effect the other way counts as inactive or inconclusive.

SMILES	RXFP1 antagonist	RXFP1 ag	Luc counter	gsp antagonist	miR-21 reporter	gsp agonist
O=C(c1ccc2c(=O)n(C3CCCC3)c(=S)[nH]c2c1)N1CCCCCC1	-63*	-1%	-3%	32µM*	25%	-9%[15.4 µM]
COc1cc(OC)cc(C(=O)NCCOC23CC4CC(CC(C4)C2)C3)c1	-6	1%	1%	-16%	5%	2.5µM*
Cc1ccc(C(=O)NCCOC23CC4CC(CC(C4)C2)C3)cc1	-28	0%	-3%	-3%	-19%	-19%
Cc1cccc(-c2noc(CCC(=O)Nc3ccccc3)n2)c1	-12	0%	-2%	?	-7%	-28%
CCOC(=O)c1ccc(NC(=O)CCc2nc(-c3cccc(C)c3)no2)cc1	-21	2%	-1%	35µM*	24%	-11%
CN(C)c1ccc(C(C#N)c2ccccc2)nn1 (stereo not drawn)	-69*	-3%	-2%	-3%	-18%	4%
COc1ccc(C(NC(=O)c2c(F)c(F)c(F)c(F)c2F)c2ccccc2)cc1 (stereo not drawn)	?	-2%	4%	32µM*	?	-38%
CC(C)c1ccc(Nc2ncnc3c2nc2n3CCCC2)cc1	-8	3%	.	.	11%	.
C#CCOc1ccccc1/C=N/NC(=O)c1ccccc1OCc1ccccc1	0	-1%	.	13µM*	19%	0%
Cc1cc(C)c(S(=O)(=O)NCC(c2ccco2)N2CCOCC2)c(C)c1 (stereo not drawn)	.	1%	.	.	-3%	.
Cc1[nH]c(=S)c(C#N)c(C)c1CC(=O)c1ccc(Br)cc1	-70*	7%	.	-14%	6%	-48%
Cc1[nH]c(=S)c(C#N)c(C)c1Cc1ccc(Cl)cc1Cl	?	10%	.	-6%	-1%	-77%
Cc1ccc(S(=O)(=O)c2nc(-c3ccc(Cl)cc3)oc2N2CCCCCC2)cc1	-9	0%	.	.	1%	.
C=CCOc1ccc(C2C(C(=O)c3cccs3)=C(O)C(=O)N2c2nnc(C)s2)cc1 (stereo not drawn)	-12	.	.	26%	.	32µM*
COc1ccc(C2C(C(=O)c3cccs3)=C(O)C(=O)N2c2nnc(C)s2)cc1OC (stereo not drawn)	29	5%	4%	-4%	-10%	4%
OC1(c2ccccc2)CC(c2ccccc2)c2ccccc2O1 (stereo not drawn)	-77*	.	.	?	.	-4%
COc1cc(NC(=O)C2CCCN(S(=O)(=O)c3cn(C)cn3)C2)cc(OC)c1 (stereo not drawn)	-4	0%	.	.	-2%	.
COc1ccc(C(=O)Nc2ccc3nc(SCC(=O)N4CCCC4)sc3c2)cc1	-21	5%	.	.	-16%	.
Cc1cccc(C(=O)Nc2ccc3nc(SCC(=O)N4CCCC4)sc3c2)c1	-66*	-2%	.	.	11%	.
NC1(c2ccc(-c3nc4ccn5c(=O)[nH]nc5c4cc3-c3ccccc3)cc2)CCC1	-62*	.	.	.	.	.
CCCCn1c(N)c(N(CCOC)C(=O)COC(=O)COc2c(C)cc(C)cc2C)c(=O)[nH]c1=O	2	1%	.	12%	.	-4%
CCCCCN(C(=O)COC(=O)COc1c(C)cc(C)cc1C)c1c(N)n(CCCC)c(=O)[nH]c1=O	-69*	0%	.	-8%	.	-2%[15.4 µM]
Cc1nc2nc(C)c(CCC(=O)N3CCN(c4ccccn4)CC3)c(C)n2n1	23	4%	0%	5%	0%	?
CCn1c(=O)c(CCC(=O)N2CCN(c3ccccn3)CC2)c(C)c2c(C)nn(-c3cccc(C)c3)c21	-103*	1%	.	6%	1%	5%
CCOc1cc(CNCc2ccccc2)ccc1OCc1ccc(Cl)cc1	-96*	-3%	.	6%	27%	-54%
CN(C)S(=O)(=O)c1ccc(C(=O)OCC(=O)Nc2cccnc2Cl)cc1	20	14µM*	2%	-1%	2%	11%[15.4 µM]
Cc1ccc(Sc2c(C=O)c3ccccc3n2C)cc1	14	12%	7%	-4%	22%	18µM*
Cc1ccc(Sc2c(O)c3ccccc3n(C)c2=O)cc1	3	?	-1%	23%	1%	13µM*
CC1CC(=O)NN=C1c1ccc(NCC(C)(C)NCC(O)COc2cc(Cl)ccc2C#N)cc1 (stereo not drawn)	13	.	.	.	.	.
Cc1nc(-c2ccc(F)cc2)c(CC(=O)N(C)CC(=O)Nc2ccc(Cl)c(C(F)(F)F)c2)s1	-10	.	.	32µM*	.	20%
O=C(c1cc(O)c(O)c(O)c1)c1ccc(O)c(O)c1O	-14	.	.	.	.	.
COc1ccc(-c2nc(CN3CCN(c4ncnc5ccccc45)CC3)c(C)o2)c(OC)c1	-14	2%	-3%	32µM*	?	-19%
Cc1oc(-c2cc(F)ccc2F)nc1CN1CCN(c2ncnc3ccccc23)CC1	-11	0%	-2%	?	-14%	6%
COc1ccc2c(c1)c1c(c(=O)n(-c3cccc(Cl)c3)c(=O)n1CC(=O)N1CCCC1)n2C	.	?	.	.	-1%	.
CCc1cccc(CC)c1NC(=O)c1cc(S(=O)(=O)N2CCc3ccccc32)cn1C	-22	-1%	.	.	1%	.
CCc1cccc2c(CCO)c[nH]c12	-9	.	.	.	.	.
CC1=NN(c2ccccc2)C(=O)C1N=Nc1ccc(C)cc1 (stereo not drawn)	.	0%	12%	.	-11%	.
CC1=NN(c2ccccc2)C(=O)C1C=Nc1ccc(N(C)C)cc1 (stereo not drawn)	-69*	-7%	.	?	5%	-5%[15.4 µM]
CCn1ccc(C(=O)Nc2cccc(Cl)c2)n1	-1	0%	-1%	-1%	-52%	27%
CCn1ccc(C(=O)Nc2ccccc2Cl)n1	1	-1%	-12%	50µM*	-58%	-30%
CCN(CC)C(=O)c1sc2c(c1C)c(=O)n(-c1ccc(C)c(C)c1)c(=O)n2Cc1cccc(Cl)c1	-10	-1%	.	.	22%	.
COc1cccc(CNC(=O)C(=O)NCC(c2ccco2)S(=O)(=O)c2ccccc2)c1 (stereo not drawn)	-16	-2%	.	.	19%	.
CCOc1ccc(-c2ccc(SCC(=O)Nc3nnc(CC)s3)nn2)cc1	1	10%	0%	8%	-44%	13%[15.4 µM]
CCOc1ccc(-c2ccc(SC)nn2)cc1	-7	0%	3.2µM*	-7%	23%	-8%[15.4 µM]
CC(C)CCC(CCNCc1ccccn1)c1ccc(Cl)cc1 (stereo not drawn)	-69*	-1%	.	3%	20%	16%
Cc1cccc(-c2nc3scc(CCNC(=O)c4ccc(Br)o4)n3n2)c1	-4	3%	.	.	9%	.

Record cards, from the list above. Order of values: RXFP1 antagonist | RXFP1 ag | Luc counter | gsp antagonist | miR-21 reporter | gsp agonist
CCc1cccc(CC)c1NC(=O)c1cc(S(=O)(=O)N2CCc3ccccc32)cn1C is listed with -22 | -1% | . | . | 1% | .
CCn1ccc(C(=O)Nc2ccccc2Cl)n1 is listed with 1 | -1% | -12% | 50µM* | -58% | -30%
CC1=NN(c2ccccc2)C(=O)C1C=Nc1ccc(N(C)C)cc1 (stereo not drawn) is listed with -69* | -7% | . | ? | 5% | -5%[15.4 µM]
CCN(CC)C(=O)c1sc2c(c1C)c(=O)n(-c1ccc(C)c(C)c1)c(=O)n2Cc1cccc(Cl)c1 is listed with -10 | -1% | . | . | 22% | .
CCOc1ccc(-c2ccc(SCC(=O)Nc3nnc(CC)s3)nn2)cc1 is listed with 1 | 10% | 0% | 8% | -44% | 13%[15.4 µM]
